Laboratory results published in ChEMBL document CHEMBL3414544, “PAINS in the assay: chemical mechanisms of assay interference and promiscuous enzymatic inhibition observed during a sulfhydryl-scavenging HTS” (J Med Chem, 2015).

Protein sequences, listed by entry. Tags and fused reporters are not part of them. Lines headed by an entry give the natural chain unless they say otherwise; changes in a name come on top.
UniProt Q03330: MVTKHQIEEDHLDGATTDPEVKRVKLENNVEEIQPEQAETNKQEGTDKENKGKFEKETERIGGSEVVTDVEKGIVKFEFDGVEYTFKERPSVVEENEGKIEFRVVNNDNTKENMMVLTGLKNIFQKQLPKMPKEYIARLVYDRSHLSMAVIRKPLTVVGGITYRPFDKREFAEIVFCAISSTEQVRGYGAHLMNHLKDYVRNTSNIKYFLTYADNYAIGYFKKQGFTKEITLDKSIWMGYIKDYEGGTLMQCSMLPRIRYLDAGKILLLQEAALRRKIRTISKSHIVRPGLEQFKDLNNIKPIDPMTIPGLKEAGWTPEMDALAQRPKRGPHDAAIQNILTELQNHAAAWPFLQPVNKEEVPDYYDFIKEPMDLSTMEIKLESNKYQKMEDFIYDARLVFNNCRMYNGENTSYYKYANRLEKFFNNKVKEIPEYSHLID

Experiments:
[1] = target: T1, Histone acetyltransferase RTT109 (Saccharomyces cerevisiae (strain ATCC 204508 / S288c) (Baker's yeast), UniProt Q07794); test: Inhibition of Vps75-stimulated recombinant Saccharomyces cerevisiae histone acetyltransferase Rtt109 using Asf1-dH3-H4 as substrate assessed as coenzyme A production after 45 mins by CPM based HTS assay
T1 sequence (Q07794 whole entry): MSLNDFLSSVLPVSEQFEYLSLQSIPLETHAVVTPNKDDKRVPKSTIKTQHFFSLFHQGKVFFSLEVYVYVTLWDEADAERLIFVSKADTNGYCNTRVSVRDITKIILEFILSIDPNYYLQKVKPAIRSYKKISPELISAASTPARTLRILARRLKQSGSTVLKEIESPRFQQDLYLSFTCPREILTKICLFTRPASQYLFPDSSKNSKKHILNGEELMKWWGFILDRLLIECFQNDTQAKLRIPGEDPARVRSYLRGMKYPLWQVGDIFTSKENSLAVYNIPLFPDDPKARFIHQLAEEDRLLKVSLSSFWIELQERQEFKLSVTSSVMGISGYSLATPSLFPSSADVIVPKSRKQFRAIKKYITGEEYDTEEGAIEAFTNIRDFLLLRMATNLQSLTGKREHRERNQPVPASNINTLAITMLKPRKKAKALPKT
Outline: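 Recombinant Rtt109–Vps75 at 50 nM, with Asf1–dH3–H4 as substrate and acetyl-CoA as acetyl donor. Buffer contained freshly prepared 0.01% Triton X-100. The CoA product was detected by fluorescence of its CPM adduct. Plates had Z′ ≥0.5. IC50 came from a four-parameter variable-slope fit.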

[2] = target: T2, Histone acetyltransferase RTT109 (Saccharomyces cerevisiae (strain ATCC 204508 / S288c) (Baker's yeast)) (UniProt Q07794); test: Inhibition of Vps75-stimulated recombinant Saccharomyces cerevisiae histone acetyltransferase Rtt109 assessed as H3K56 acetylated product at […] after 45 mins by Slot bolt inhibiton assay
T2 sequence (whole entry): T1 sequence (Q07794 whole entry)

[3] = target: T2, Histone acetyltransferase RTT109 (Saccharomyces cerevisiae (strain ATCC 204508 / S288c) (Baker's yeast)); test: Inhibition of Vps75-stimulated recombinant Saccharomyces cerevisiae histone acetyltransferase Rtt109 assessed as H3K27 acetylated product at […] after 45 mins by Slot bolt inhibiton assay
[4] = target: T2, Histone acetyltransferase RTT109 (Saccharomyces cerevisiae (strain ATCC 204508 / S288c) (Baker's yeast)); test: Inhibition of Vps75-stimulated recombinant Saccharomyces cerevisiae histone acetyltransferase Rtt109 using [3H]-acetyl-CoA assessed as acetate incorporation […] by liquid scintillation counting in presence of 1 mM DTT
[5] = target: Histone acetyltransferase GCN5 (Saccharomyces cerevisiae S288c, UniProt Q03330); test: Inhibition of yeast histone acetyltransferase Gcn5-Ada2-Ada3 complex using tetramer and [3H]-acetyl-CoA assessed as acetate incorporation after 30 mins by liquid scintillation counting
Outline: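 Gcn5–Ada2–Ada3 at about 500 pM, with recombinant dH3–H4 tetramers as substrate and 2.5 μM [3H]-acetyl-CoA. Buffer was 50 mM Tris-HCl pH 8.0, KCl, EDTA, 1 mM DTT, 0.01% Triton X-100 and BSA. […] Quenched aliquots were spotted on P-81 filters and counted by scintillation; results are percent of DMSO control.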

SMILES	IC50 [1] [µM]	also measured
O=S1(=O)C=C(Sc2nn(-c3ccccc3)c(=S)s2)c2ccccc21	7	–
O=[N+]([O-])c1cc(Br)c2nsnc2c1Sc1nnnn1C1CCCCC1	3.1	–
CCOc1ccc(Nc2nc(-c3ccc(C)cc3)[n+](Cc3ccc([N+](=O)[O-])cc3)s2)cc1.[Br-]	3.8	–
CC(C)c1ccc(S(=O)(=O)Nc2cc(SCCC(=O)O)c(O)c3ccccc23)cc1	–	Activity [2]: Active; Activity [3]: Active
Cc1ccc(-c2nnc(SC3CC(=O)N(c4ccc5ccccc5c4)C3=O)[nH]2)cc1 (stereo not given)	12	–
CC(C)c1ccc(S(=O)(=O)Nc2ccc(O)c(Br)c2)cc1	99	–
CC(C)(C)c1ccc(S(=O)(=O)Nc2cc(SCC(=O)O)c(O)c3ccccc23)cc1	–	Activity [2]: Active; Activity [3]: Active
COc1ccc(Nc2nc(-c3ccc(C)cc3)[n+](Cc3ccccc3)s2)cc1.[Cl-]	9.2	–
O=C(O)CCSc1cc(NS(=O)(=O)c2ccc(Br)cc2)c2ccccc2c1O	–	Activity [2]: Active; Activity [3]: Active; Activity [4]: Active
CSc1nsc(SC2=CS(=O)(=O)c3ccccc32)n1	4.5	–
O=C1CC(Sc2nnc(-c3ccccc3O)o2)C(=O)N1c1ccccc1 (stereo not given)	21	–
O=S(=O)(Nc1cc(Br)c(O)c2ccccc12)c1ccc2ccccc2c1	3.4	–
Cc1ccc(-c2nnc(SC3CC(=O)N(c4ccc(Oc5ccccc5)cc4)C3=O)[nH]2)cc1 (stereo not given)	20	–
O=C(O)CSc1cc(NS(=O)(=O)c2cccc([N+](=O)[O-])c2)c2ccccc2c1O	–	Activity [2]: Active; Activity [3]: Active
O=C1CC(Sc2nnc(-c3ccccc3)[nH]2)C(=O)N1c1ccc(Oc2ccccc2)cc1 (stereo not given)	8.6	–
O=S(=O)(Nc1ccc(O)c(Br)c1)c1ccc(Cl)cc1	120	–
[O-][Cl+3]([O-])([O-])[O-].c1ccc(C[n+]2sc(N(c3ccccc3)c3ccccc3)nc2-c2ccccc2)cc1	3.6	–
[Br-].c1ccc(Nc2nc(-c3ccccc3)[n+](-c3ccccc3)s2)cc1	3.4	–

SMILES	IC50 [1] [µM]	also measured
Cc1occc1-c1nnc(SC2=CS(=O)(=O)c3ccccc32)o1	7.5	–
COc1cc(-c2nnc(SC3=CS(=O)(=O)c4ccccc43)o2)cc(OC)c1OC	10	–
O=C(O)CSc1cc(NS(=O)(=O)c2ccc(Br)cc2)c2ccccc2c1O	–	Activity [2]: Active; Activity [3]: Active; Activity [4]: Active
O=S(=O)(Nc1cc(Sc2nnnn2-c2ccccc2)c(O)c2ccccc12)c1ccccc1	–	IC50 [5]: 4.3 µM
CCC(=O)OCCNc1cc(Sc2nnc(-c3ccccc3)s2)c2nonc2c1[N+](=O)[O-]	7	–
Cc1cc(C)c(S(=O)(=O)Nc2cc(Br)c(O)c3ccccc23)c(C)c1	2.8	–
Cc1ccc(-c2nc(N(c3ccccc3)c3ccccc3)s[n+]2CS(=O)(=O)c2ccccc2)cc1.[O-][Cl+3]([O-])([O-])[O-]	44	–
CC(C)c1ccc(S(=O)(=O)Nc2cc(Sc3nc[nH]n3)c(O)c3ccccc23)cc1	1.4	–
O=C(O)c1ccc(S(=O)(=O)Nc2cc(Br)c(O)c3ccccc23)cc1	2.8	–
Cc1ccc(-c2nc(Nc3ccccc3)s[n+]2CS(=O)(=O)c2ccccc2)cc1.[Cl-]	15	–
O=c1[nH]c(Sc2c([N+](=O)[O-])cc(Br)c3nsnc23)nc2ccccc12	9.5	–
O=C(O)CSc1cc(NS(=O)(=O)c2ccc(C(=O)O)cc2)c2ccccc2c1O	–	Activity [2]: Active; Activity [3]: Active; Activity [4]: Active
O=S(=O)(Nc1cc(Sc2ccccc2)c(O)c2ccccc12)c1ccccc1	1.9	–
O=C1CC(Sc2nnnn2-c2ccccc2)C(=O)N1c1ccc([N+](=O)[O-])cc1 (stereo not given)	14	–
Cc1ccc(S(=O)(=O)C2=CS(=O)(=O)c3ccccc32)cc1	10	–
Cc1nnc(SC2CC(=O)N(c3ccc(Br)cc3)C2=O)s1 (stereo not given)	11	–
Cn1c(Sc2ccc([N+](=O)[O-])c3nonc23)nnc1-c1ccccc1	1.9	–
O=S(=O)(C[n+]1sc(Nc2ccc(Cl)cc2Cl)nc1-c1ccccc1)c1ccccc1.[Cl-]	9	–

Calls of active or inactive are those of the source.
